# Measured values taken from BindingDB's records for 3783578.
# The chains behind the UniProt entries cited, without tags or fusion partners. Residues count along the entry.
# UniProt O42275, 24-633 limits assumed: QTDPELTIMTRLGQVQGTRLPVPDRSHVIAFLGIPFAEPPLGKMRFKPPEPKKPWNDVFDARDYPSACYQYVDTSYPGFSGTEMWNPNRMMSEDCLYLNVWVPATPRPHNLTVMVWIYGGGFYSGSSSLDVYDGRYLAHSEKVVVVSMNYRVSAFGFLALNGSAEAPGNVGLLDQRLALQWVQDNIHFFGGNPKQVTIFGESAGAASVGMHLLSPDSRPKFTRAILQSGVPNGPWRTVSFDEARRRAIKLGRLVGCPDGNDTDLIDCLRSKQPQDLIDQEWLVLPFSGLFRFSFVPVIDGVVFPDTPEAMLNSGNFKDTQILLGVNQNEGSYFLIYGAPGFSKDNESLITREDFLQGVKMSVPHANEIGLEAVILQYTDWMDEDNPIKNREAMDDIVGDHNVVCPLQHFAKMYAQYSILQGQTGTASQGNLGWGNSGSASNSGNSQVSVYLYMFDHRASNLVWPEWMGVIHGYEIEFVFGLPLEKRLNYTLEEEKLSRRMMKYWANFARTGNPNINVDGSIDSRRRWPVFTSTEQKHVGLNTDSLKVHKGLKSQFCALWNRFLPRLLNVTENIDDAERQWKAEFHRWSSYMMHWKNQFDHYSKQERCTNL
# Where “and” joins values, the source holds several entries; their conditions need not be identical. Equal entries are not always repeated.
# Tests used:
# Acetylcholinesterase [1] = target: T1, Acetylcholinesterase (Electrophorus electricus, UniProt O42275); test: ChEBML_27977
# Acetylcholinesterase [2] = target: T1, Acetylcholinesterase; test: In vitro reversible inhibition of eel acetylcholinesterase.
SMILES,IC50 (Acetylcholinesterase [1]),IC50 (Acetylcholinesterase [2]) [µM]
O=NCc1nc(-c2cccs2)no1,> 500 µM,–
O=NCc1nc(-c2cccc3ccccc23)no1,> 1000 µM,–
CCCCCCCCc1noc(CN=O)n1,> 1000 µM,–
C[n+]1c(CCO[n+]2ccc(C(N)=O)cc2)cccc1CN=O,400 µM and > 1000 µM,–
CCN(CC)CCSC(N=O)c1nc(Cc2ccccc2)no1 (centres undefined),55 µM,–
CCN(CC)CCSC(N=O)c1nc(C)no1 (centres undefined),104 µM,–
Cc1noc(CN=O)n1,> 1000 µM,–
CCN(CC)CCSC(N=O)c1nc(C(C)(C)C)no1 (centres undefined),99 µM,–
O=NCc1nc(-c2ccccc2)no1,> 1000 µM,> 1000
O=NCc1nc(Cc2ccccc2)no1,> 1000 µM,–
CCN(CC)CCSC(N=O)c1nc(-c2ccccc2)no1 (centres undefined),220 µM,–
CC(C)(C)c1noc(CN=O)n1,> 1000 µM,–
CCN(CC)CCNC(=NO)c1nc(-c2ccccc2)no1,890 µM,–
